Assay results taken from US20040037843A1, “Inducing cellular immune responses to prostate cancer antigens using peptide and nucleic acid compositions” (priority 2003, published 2004).
Read-outs that look alike come from different tables or passages of the source.

Key:
[1] = target: HLA-A*6802 (Homo sapiens, UniProt P04439, A269V/D140Y/D185E/E176V/E277Q/E87N/F33Y/G231S/I121R/I166T/I218V/L180W/L300P/L318F/N151K/P208A/P217A/Q86R/R138H/R169H/S129P/T345S/V36M); test: HLA class I binding assay, purified HLA, inhibition of 125I-labelled probe peptide; settings: A2 supermotif cross-reactive binding data
[2] = system: HLA-A2 supertype molecules (A*0201, A*0202, A*0203, A*0206, A*6802); test: A2-supertype cross-reactive binding (number of the five alleles bound); parameters: species or system human; settings: for A2 Cross-Reactivity: number of the five A2-supertype alleles bound
[3] = target: HLA-A*0203 (Homo sapiens, UniProt P04439, A173T/D140Y/D185E/D98H/E277Q/G131W/G231S/I119V/I121R/I166T/I218V/L180W/L300P/L318F/N151K/N90K/P208A/P217A/Q86G/Q94H/R138H/R169H/T345S); test: HLA class I binding assay, purified HLA, inhibition of 125I-labelled probe peptide; settings: A*[…]
[4] = target: HLA-A*0201 (Homo sapiens, UniProt P04439, D140Y/D185E/D98H/E176V/E277Q/G131W/G231S/I119V/I121R/I166T/I218V/L300P/L318F/N151K/N90K/P208A/P217A/Q86G/Q94H/R138H/R169H/T345S); test: as above
[5] = target: HLA-A*0202 (Homo sapiens, UniProt P04439, D140Y/D185E/D98H/E176V/E277Q/G131W/G231S/I119L/I121R/I166T/I218V/L180W/L300P/L318F/N151K/N90K/P208A/P217A/Q67R/Q86G/Q94H/R138H/R169H/T345S); test: as above; settings: A*[…], A2 supermotif cross-reactive binding data
[6] = A*[…], A2 supermotif cross-reactive binding data
[7] = Table XXII group headings ≦ 200 nM / > 200 nM, binding to HLA-A*0201, read-out: Binding affinity

Row | IC50 [1] [nM] | IC50 [4, 7] [nM] | Structure (SMILES) | other results
1 | > 10000 |  | CC(C)C[C@H](NC(=O)[C@@H](N)C(C)C)C(=O)N[C@H](C(=O)N[C@@H](Cc1c[nH]cn1)C(=O)N1CCC[C@H]1C(=O)N[C@@H](CCC(N)=O)C(=O)N[C@@H](Cc1c[nH]c2ccccc12)C(=O)N[C@H](C(=O)N[C@@H](CC(C)C)C(=O)N[C@H](C(=O)N[C@@H](C)C(=O)O)[C@@H](C)O)C(C)C)C(C)C [Peptide 1419.10] | A2 Cross-Reactivity [2]: 3
2 | > 10000 |  | CC(C)C[C@H](NC(=O)CN)C(=O)N[C@@H](Cc1c[nH]cn1)C(=O)NCC(=O)N[C@@H](CCC(N)=O)C(=O)N[C@@H](CC(=O)O)C(=O)N[C@@H](CC(C)C)C(=O)N[C@@H](Cc1ccccc1)C(=O)NCC(=O)N[C@H](C(=O)O)C(C)C [Peptide 1419.62] | IC50 ([3]; purified HLA-A*0203): 3.2 nM
3 | > 10000 |  | CC(C)C[C@H](NC(=O)[C@H](CO)NC(=O)[C@H](CC(C)C)NC(=O)[C@@H](N)CO)C(=O)NCC(=O)N[C@@H](Cc1ccccc1)C(=O)N[C@@H](CC(C)C)C(=O)N[C@@H](Cc1ccccc1)C(=O)N[C@H](C(=O)O)C(C)C [Peptide 1419.50] | 

The next lines start with the compound.

Row | Structure (SMILES) | IC50 [1] [nM] | IC50 [4, 7] [nM] | other results
4 | CC[C@H](C)[C@H](NC(=O)[C@H](Cc1ccc(O)cc1)NC(=O)[C@H](C)NC(=O)[C@@H](NC(=O)CNC(=O)[C@H](CCCNC(=N)N)NC(=O)[C@H](CCC(=O)O)NC(=O)[C@H](CCC(N)=O)NC(=O)[C@H](CC(C)C)NC(=O)[C@@H](N)CC(C)C)C(C)C)C(=O)O [Peptide 1129.01] | > 10000 |  | 
5 | CC(C)C[C@H](NC(=O)[C@H](C)N)C(=O)N[C@@H](CO)C(=O)N[C@H](C(=O)NCC(=O)N[C@@H](CS)C(=O)N[C@H](C(=O)NCC(=O)N[C@@H](C)C(=O)N[C@H](C(=O)O)C(C)C)[C@@H](C)O)C(C)C [Peptide 1419.05] | > 10000 |  | IC50 ([3]; A2 supermotif cross-reactive binding data): 17 nM; IC50 [4, 6]: 53 nM; A2 Cross-Reactivity [2]: 3; Cross-Reactivity (<200nM) ([2]; number of the five A2 supertype alleles bound at <200nM): 3
6 | CSCC[C@H](NC(=O)[C@@H](N)CC(C)C)C(=O)N[C@@H](CC(C)C)C(=O)N[C@@H](CC(C)C)C(=O)N[C@@H](CCCNC(=N)N)C(=O)N[C@@H](CC(C)C)C(=O)N[C@@H](CO)C(=O)N[C@@H](CCC(=O)O)C(=O)N1CCC[C@H]1C(=O)N[C@H](C(=O)O)C(C)C [Peptide 1418.43] | 6150 |  | IC50 [4, 6]: 114 nM; IC50 [5]: 67 nM; A2 Cross-Reactivity [2]: 4
7 | CC(C)C[C@H](NC(=O)[C@H](C)N)C(=O)N[C@@H](Cc1ccccc1)C(=O)N1CCC[C@H]1C(=O)N1CCC[C@H]1C(=O)N[C@@H](CCC(=O)O)C(=O)NCC(=O)N[C@H](C(=O)N[C@@H](CO)C(=O)N[C@H](C(=O)O)C(C)C)C(C)C [Peptide 1419.61] |  |  | IC50 [5]: 1 nM
8 | CC[C@H](C)[C@H](NC(=O)[C@H](Cc1ccc(O)cc1)NC(=O)[C@H](C)NC(=O)[C@@H](NC(=O)CNC(=O)[C@H](CCCNC(=N)N)NC(=O)[C@H](CCC(=O)O)NC(=O)[C@H](CCC(N)=O)NC(=O)[C@H](CC(C)C)NC(=O)[C@@H](N)CC(C)C)C(C)C)C(=O)O [PSM.441] |  | ≤ 200 | 
9 | CSCC[C@H](NC(=O)[C@H](CC(=O)O)NC(=O)[C@H](CC(N)=O)NC(=O)[C@H](CO)NC(=O)[C@H](CC(C)C)NC(=O)[C@H](CC(C)C)NC(=O)[C@H](Cc1c[nH]cn1)NC(=O)[C@H](CC(C)C)NC(=O)[C@@H](N)CO)C(=O)N[C@@H](CS)C(=O)N[C@@H](C)C(=O)O [HuK2.175] |  | ≤ 200 | 
10 | CC(C)C[C@H](NC(=O)[C@H](CC(=O)O)NC(=O)[C@@H](NC(=O)[C@H](CS)NC(=O)[C@H](CCC(N)=O)NC(=O)[C@H](CC(C)C)NC(=O)[C@@H](N)CCCCN)C(C)C)C(=O)N[C@@H](Cc1c[nH]cn1)C(=O)N[C@H](C(=O)O)C(C)C [PSA.166] |  | ≤ 200 | 
11 | CC[C@H](C)[C@H](N)C(=O)N[C@@H](CC(C)C)C(=O)N[C@@H](CC(C)C)C(=O)N[C@@H](Cc1c[nH]c2ccccc12)C(=O)N[C@@H](CCC(N)=O)C(=O)N1CCC[C@H]1C(=O)N[C@H](C(=O)N1CCC[C@H]1C(=O)N[C@H](C(=O)O)C(C)C)[C@@H](C)CC [PAP.135] |  | ≤ 200 | 
